Laboratory results reported in PubChem BioAssay (NCI).
Some of these compounds have results that are not shown, active ones among them.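 Method: 48-hour compound exposure of cells in 96-well plates, five concentrations, linear interpolation of endpoints. Abbreviation: GI50, concentration required for 50% inhibition of growth. The concentration for full growth arrest is given as TGI.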

What was measured:
Assay in all cases: NCI anticancer screen, dose series, 48 h
786-0 renal = test system: 786-0 renal
A549 NSCLC = test system: A549 NSCLC
ACHN renal = test system: ACHN renal
BT-549 breast = test system: BT-549 breast
CAKI-1 renal = test system: CAKI-1 renal
CCRF-CEM leukemia = test system: CCRF-CEM leukemia
COLO 205 colon = test system: COLO 205 colon
DU-145 prostate = test system: DU-145 prostate
EKVX NSCLC = test system: EKVX NSCLC
HCC-2998 colon = test system: HCC-2998 colon
HCT-116 colon = test system: HCT-116 colon
HCT-15 colon = test system: HCT-15 colon
HL-60(TB) leukemia = test system: HL-60(TB) leukemia
HOP-62 NSCLC = test system: HOP-62 NSCLC
HT29 colon = test system: HT29 colon
IGROV1 ovarian = test system: IGROV1 ovarian
K-562 leukemia = test system: K-562 leukemia
KM12 colon = test system: KM12 colon
LOX IMVI melanoma = test system: LOX IMVI melanoma
M14 melanoma = test system: M14 melanoma
MALME-3M melanoma = test system: MALME-3M melanoma
MCF7 breast = test system: MCF7 breast
MDA-MB-231 breast = test system: MDA-MB-231 breast
MDA-MB-435 = test system: MDA-MB-435
MDA-N = test system: MDA-N
MOLT-4 leukemia = test system: MOLT-4 leukemia
NCI-H226 lung = test system: NCI-H226 lung
NCI-H23 lung = test system: NCI-H23 lung
NCI-H522 lung = test system: NCI-H522 lung
NCI/ADR-RES ovarian = test system: NCI/ADR-RES ovarian
OVCAR-3 ovarian = test system: OVCAR-3 ovarian
OVCAR-5 ovarian = test system: OVCAR-5 ovarian
OVCAR-8 ovarian = test system: OVCAR-8 ovarian
PC-3 prostate = test system: PC-3 prostate
RPMI-8226 leukemia = test system: RPMI-8226 leukemia
RXF 393 renal = test system: RXF 393 renal
SF-268 CNS = test system: SF-268 CNS
SF-295 CNS = test system: SF-295 CNS
SF-539 CNS = test system: SF-539 CNS
SK-MEL-28 melanoma = test system: SK-MEL-28 melanoma
SK-MEL-5 melanoma = test system: SK-MEL-5 melanoma
SK-OV-3 ovarian = test system: SK-OV-3 ovarian
SN12C renal = test system: SN12C renal
SNB-19 CNS = test system: SNB-19 CNS
SNB-75 CNS = test system: SNB-75 CNS
SR leukemia = test system: SR leukemia
SW-620 colon = test system: SW-620 colon
T-47D breast = test system: T-47D breast
TK-10 renal = test system: TK-10 renal
U251 CNS = test system: U251 CNS
UACC-257 melanoma = test system: UACC-257 melanoma
UACC-62 melanoma = test system: UACC-62 melanoma
UO-31 renal = test system: UO-31 renal

For `C=C(C)C#CC(O)(C(=O)OC1C2CCN(CC2)C1C)c1ccccc1` (stereo unspecified), the GI50 (786-0 renal) was greater than 100 µM, the TGI (786-0 renal) was greater than 100 µM and the GI50 (A549 NSCLC) was greater than 100 µM. The TGI (A549 NSCLC) was greater than 100 µM, the GI50 (ACHN renal) was greater than 100 µM and the TGI (ACHN renal) was greater than 100 µM. It also gave a GI50 (BT-549 breast) greater than 100 µM, a TGI (BT-549 breast) greater than 100 µM and a GI50 (CAKI-1 renal) of 90.6 µM. It also gave a TGI (CAKI-1 renal) greater than 100 µM, a GI50 (CCRF-CEM leukemia) greater than 100 µM and a TGI (CCRF-CEM leukemia) greater than 100 µM. The GI50 (COLO 205 colon) was greater than 100 µM, the TGI (COLO 205 colon) was greater than 100 µM and the GI50 (DU-145 prostate) was greater than 100 µM. For the same compound, the TGI (DU-145 prostate) was greater than 100 µM, the GI50 (EKVX NSCLC) was greater than 100 µM and the TGI (EKVX NSCLC) was greater than 100 µM. The GI50 (HCC-2998 colon) was greater than 100 µM, the TGI (HCC-2998 colon) was greater than 100 µM and the GI50 (HCT-116 colon) was greater than 100 µM. It also gave a TGI (HCT-116 colon) greater than 100 µM, a GI50 (HCT-15 colon) greater than 100 µM and a TGI (HCT-15 colon) greater than 100 µM. It also gave a GI50 (HL-60(TB) leukemia) greater than 100 µM, a TGI (HL-60(TB) leukemia) greater than 100 µM and a GI50 (HOP-62 NSCLC) greater than 100 µM. It also gave a TGI (HOP-62 NSCLC) greater than 100 µM, a GI50 (HT29 colon) greater than 100 µM and a TGI (HT29 colon) greater than 100 µM. For the same compound, the GI50 (IGROV1 ovarian) was greater than 100 µM, the TGI (IGROV1 ovarian) was greater than 100 µM and the GI50 (K-562 leukemia) was greater than 100 µM. For the same compound, the TGI (K-562 leukemia) was greater than 100 µM, the GI50 (KM12 colon) was greater than 100 µM and the TGI (KM12 colon) was greater than 100 µM. It also gave a GI50 (LOX IMVI melanoma) greater than 100 µM, a TGI (LOX IMVI melanoma) greater than 100 µM and a GI50 (M14 melanoma) greater than 100 µM. The TGI (M14 melanoma) was greater than 100 µM, the GI50 (MALME-3M melanoma) was greater than 100 µM and the TGI (MALME-3M melanoma) was greater than 100 µM. For the same compound, the GI50 (MCF7 breast) was greater than 100 µM, the TGI (MCF7 breast) was greater than 100 µM and the GI50 (MDA-MB-231 breast) was greater than 100 µM. For the same compound, the TGI (MDA-MB-231 breast) was greater than 100 µM, the GI50 (MDA-MB-435) was greater than 100 µM and the TGI (MDA-MB-435) was greater than 100 µM. It also gave a GI50 (MDA-N) greater than 100 µM, a TGI (MDA-N) greater than 100 µM and a GI50 (MOLT-4 leukemia) greater than 100 µM. The TGI (MOLT-4 leukemia) was greater than 100 µM, the GI50 (NCI-H226 lung) was greater than 100 µM and the TGI (NCI-H226 lung) was greater than 100 µM. For the same compound, the GI50 (NCI-H23 lung) was greater than 100 µM, the TGI (NCI-H23 lung) was greater than 100 µM and the GI50 (NCI-H522 lung) was greater than 100 µM. For the same compound, the TGI (NCI-H522 lung) was greater than 100 µM, the GI50 (NCI/ADR-RES ovarian) was greater than 100 µM and the TGI (NCI/ADR-RES ovarian) was greater than 100 µM. It also gave a GI50 (OVCAR-3 ovarian) greater than 100 µM, a TGI (OVCAR-3 ovarian) greater than 100 µM and a GI50 (OVCAR-5 ovarian) greater than 100 µM. For the same compound, the TGI (OVCAR-5 ovarian) was greater than 100 µM, the GI50 (OVCAR-8 ovarian) was greater than 100 µM and the TGI (OVCAR-8 ovarian) was greater than 100 µM. The GI50 (PC-3 prostate) was greater than 100 µM, the TGI (PC-3 prostate) was greater than 100 µM and the GI50 (RPMI-8226 leukemia) was greater than 100 µM. The TGI (RPMI-8226 leukemia) was greater than 100 µM, the GI50 (RXF 393 renal) was greater than 100 µM and the TGI (RXF 393 renal) was greater than 100 µM. For the same compound, the GI50 (SF-268 CNS) was greater than 100 µM, the TGI (SF-268 CNS) was greater than 100 µM and the GI50 (SF-295 CNS) was greater than 100 µM. It also gave a TGI (SF-295 CNS) greater than 100 µM, a GI50 (SF-539 CNS) greater than 100 µM and a TGI (SF-539 CNS) greater than 100 µM. The GI50 (SK-MEL-28 melanoma) was greater than 100 µM, the TGI (SK-MEL-28 melanoma) was greater than 100 µM and the GI50 (SK-MEL-5 melanoma) was greater than 100 µM. It also gave a TGI (SK-MEL-5 melanoma) greater than 100 µM, a GI50 (SK-OV-3 ovarian) greater than 100 µM and a TGI (SK-OV-3 ovarian) greater than 100 µM. For the same compound, the GI50 (SN12C renal) was greater than 100 µM, the TGI (SN12C renal) was greater than 100 µM and the GI50 (SNB-19 CNS) was greater than 100 µM. It also gave a TGI (SNB-19 CNS) greater than 100 µM, a GI50 (SNB-75 CNS) greater than 100 µM and a TGI (SNB-75 CNS) greater than 100 µM. The GI50 (SR leukemia) was greater than 100 µM, the TGI (SR leukemia) was greater than 100 µM and the GI50 (SW-620 colon) was greater than 100 µM. For the same compound, the TGI (SW-620 colon) was greater than 100 µM, the GI50 (T-47D breast) was greater than 100 µM and the TGI (T-47D breast) was greater than 100 µM. It also gave a GI50 (TK-10 renal) greater than 100 µM, a TGI (TK-10 renal) greater than 100 µM and a GI50 (U251 CNS) greater than 100 µM. For the same compound, the TGI (U251 CNS) was greater than 100 µM, the GI50 (UACC-257 melanoma) was greater than 100 µM and the TGI (UACC-257 melanoma) was greater than 100 µM. It also gave a GI50 (UACC-62 melanoma) greater than 100 µM, a TGI (UACC-62 melanoma) greater than 100 µM and a GI50 (UO-31 renal) greater than 100 µM. The TGI (UO-31 renal) was greater than 100 µM.
